Measured values taken from paper PMC11968843.

Protein sequences, listed by entry. Tags and fused reporters are not part of them.
UniProt Q86TI2, whole entry: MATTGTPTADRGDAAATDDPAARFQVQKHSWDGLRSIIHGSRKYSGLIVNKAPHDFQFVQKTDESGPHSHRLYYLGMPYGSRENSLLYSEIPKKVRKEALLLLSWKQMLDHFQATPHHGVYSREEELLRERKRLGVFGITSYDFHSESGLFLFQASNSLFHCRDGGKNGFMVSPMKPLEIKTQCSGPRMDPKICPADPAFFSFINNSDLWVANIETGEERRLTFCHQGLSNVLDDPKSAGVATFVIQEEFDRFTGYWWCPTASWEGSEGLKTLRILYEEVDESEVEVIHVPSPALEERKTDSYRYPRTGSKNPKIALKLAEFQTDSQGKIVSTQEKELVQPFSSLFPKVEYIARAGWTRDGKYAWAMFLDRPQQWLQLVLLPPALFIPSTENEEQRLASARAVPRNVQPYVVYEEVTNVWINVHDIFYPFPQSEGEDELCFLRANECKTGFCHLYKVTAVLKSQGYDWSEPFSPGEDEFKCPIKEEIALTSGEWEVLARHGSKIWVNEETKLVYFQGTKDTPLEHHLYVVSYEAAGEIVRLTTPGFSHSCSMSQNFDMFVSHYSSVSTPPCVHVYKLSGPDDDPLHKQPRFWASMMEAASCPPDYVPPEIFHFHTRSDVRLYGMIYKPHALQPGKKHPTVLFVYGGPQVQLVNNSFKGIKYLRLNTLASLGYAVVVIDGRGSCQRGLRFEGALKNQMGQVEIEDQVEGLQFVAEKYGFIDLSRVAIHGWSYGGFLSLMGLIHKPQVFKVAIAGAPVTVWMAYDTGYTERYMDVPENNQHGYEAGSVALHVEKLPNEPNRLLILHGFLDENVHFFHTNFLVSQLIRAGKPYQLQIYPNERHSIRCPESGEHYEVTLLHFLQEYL
UniProt Q6V1X1, whole entry: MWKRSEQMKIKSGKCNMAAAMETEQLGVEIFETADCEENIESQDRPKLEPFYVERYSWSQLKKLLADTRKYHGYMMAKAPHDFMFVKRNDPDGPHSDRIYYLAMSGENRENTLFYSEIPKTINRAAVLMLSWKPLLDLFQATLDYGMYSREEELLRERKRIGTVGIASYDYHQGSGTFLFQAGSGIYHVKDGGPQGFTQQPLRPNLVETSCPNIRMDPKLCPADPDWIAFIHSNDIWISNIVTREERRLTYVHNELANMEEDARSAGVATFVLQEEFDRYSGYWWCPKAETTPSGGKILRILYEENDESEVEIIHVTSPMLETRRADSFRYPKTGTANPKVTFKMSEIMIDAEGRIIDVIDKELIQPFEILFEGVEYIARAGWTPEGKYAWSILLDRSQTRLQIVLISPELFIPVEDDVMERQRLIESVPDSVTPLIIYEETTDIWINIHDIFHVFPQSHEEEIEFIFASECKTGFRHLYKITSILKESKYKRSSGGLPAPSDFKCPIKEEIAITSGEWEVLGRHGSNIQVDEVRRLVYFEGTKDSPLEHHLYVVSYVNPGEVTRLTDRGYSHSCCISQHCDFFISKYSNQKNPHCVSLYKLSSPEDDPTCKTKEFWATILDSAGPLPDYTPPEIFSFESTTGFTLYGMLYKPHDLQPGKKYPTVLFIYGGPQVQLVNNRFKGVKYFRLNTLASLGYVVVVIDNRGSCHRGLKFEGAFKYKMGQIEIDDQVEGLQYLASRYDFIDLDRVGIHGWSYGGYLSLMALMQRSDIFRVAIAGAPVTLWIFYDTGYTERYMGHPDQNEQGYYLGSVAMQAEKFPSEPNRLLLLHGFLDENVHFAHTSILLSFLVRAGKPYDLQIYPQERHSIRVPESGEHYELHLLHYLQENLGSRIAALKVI

Key:
HeLa wild-type cells = test: Cell viability assay; format: cell-based; conditions: tested form: TFA; for effect on cell viability without MMC: 10 µM, 72 h; for 95% confidence interval of difference: Figure S11b, Ctrl. vs. compound, Uncorrected Fisher's LSD
[1] = tested on: HEK293 cell lysates (proteome-wide targets of probe 9); format: binding, H. sapiens; conditions: 50 µM competitor, 10 µM 9, HEK293 lysates; tested form: TFA
DPP9 [2] = molecular target: T1, DPP9 (Homo sapiens, UniProt Q86TI2); conditions: for DPP9 activity [%]: replicates, tested form: TFA; for IC50: read-out: IC50 DPP9, GP-AMC 250 µM, 10 nM enzyme, 45 min pre-incubation at 30 °C
DPP9 [3] = molecular target: T1, DPP9; test: Time-dependent DPP9 inhibition kinetics; format: biochemical; conditions: n=3, tested form: TFA
DPP8 = DPP8 (Homo sapiens, UniProt Q6V1X1); conditions: read-out: IC50 DPP8; GP-AMC 250 µM, 10 nM enzyme, 45 min pre-incubation at 30 °C

## CCCCCCCCCCP(=O)(OCC)N1CCC[C@H](N)C1=O (some centres unmarked)
HeLa wild-type cells
  effect on cell viability without MMC: Lower cell viability
  95% confidence interval of difference: -8,549 to 5,070

## CCCCCCCCCCCCP(=O)(OCC)N1CCC[C@H](N)C1=O (some centres unmarked)
[1]
  competition of labeling by probe 9: solely DPP9 was competed
HeLa wild-type cells
  effect on cell viability without MMC: Lower cell viability
  95% confidence interval of difference: 0,3950 to 14,01

## C#CCCCCCCP(=O)(OCC)N1CCC[C@H](N)C1=O (some centres unmarked)
DPP9 [2]; c 1562.5 nM
  DPP9 activity [%]: 96.3619% and 93.8019% and 90.7073%
DPP9 [2]; c 3125 nM
  DPP9 activity [%]: 90.8045% and 89.28% and 92.2244%
DPP9 [2]; c 6250 nM
  DPP9 activity [%]: 89.6129% and 87.7806% and 84.876%
DPP9 [2]; c 12500 nM
  DPP9 activity [%]: 80.4881% and 71.5519% and 73.1353%
DPP9 [2]; c 25000 nM
  DPP9 activity [%]: 59.521% and 52.8796% and 53.8653%
DPP9 [2]; c 50000 nM
  DPP9 activity [%]: 32.4162% and 31.7268% and 33.9907%
DPP9 [2]; c 100000 nM
  DPP9 activity [%]: 16.7766% and 12.7762% and 13.8485%
DPP9 [3]; c 12500 nM
  kobs: 3.81e-05 s⁻¹
DPP9 [3]; c 25000 nM
  kobs: 5.42e-05 s⁻¹
DPP9 [3]; c 50000 nM
  kobs: 8.79e-05 s⁻¹
DPP9 [3]; c 100000 nM
  kobs: 0.000125 s⁻¹

## N[C@@H]1CCCN([P@](N)(=O)NS(=O)(=O)O)C1=O
DPP9 [2]
  IC50: > 100 µM
DPP8
  IC50: > 100 µM

## N[C@H]1CCCN([P@](N)(=O)NS(=O)(=O)O)C1=O
DPP9 [2]
  IC50: 72.7 µM
DPP8
  IC50: > 100 µM

Where “and” joins values, the source holds several entries; their conditions need not be identical. Equal entries are not always repeated. Where two headings read alike, the source gives them in different places.
